From the OPERA property sets (Mansouri et al. 2018)

Conditions: experimental values compiled from the literature

SMILES	logP
OCCSCCO	-0.63
N=C(N)N[N+](=O)[O-]	-0.89
ClCCN(CCCl)c1ccccc1	2.9
Nc1cc([N+](=O)[O-])cc([N+](=O)[O-])c1O	0.93
Cc1c([N+](=O)[O-])cc([N+](=O)[O-])cc1[N+](=O)[O-]	1.6
CCCSC(=NO)C(=O)c1ccc(Br)cc1	3.38
O=[N+]([O-])c1cccc([N+](=O)[O-])c1	1.49
CN(C)C(=O)OCc1cccc(N)c1	1.06
CNOc1c([N+](=O)[O-])cc([N+](=O)[O-])cc1[N+](=O)[O-]	0.7
COP(=O)(OC)c1ccccc1	0.95
CCC(C)NOc1c([N+](=O)[O-])cc([N+](=O)[O-])cc1[N+](=O)[O-] (stereo not drawn)	1.8
O=[N+]([O-])c1ccccc1[N+](=O)[O-]	1.69
CC(C)(C)NOc1c([N+](=O)[O-])cc([N+](=O)[O-])cc1[N+](=O)[O-]	1.68
O=[N+]([O-])c1cc(O)cc([N+](=O)[O-])c1	2.36
C[As](=O)([O-])O.[Na+]	-3.1
O=[N+]([O-])c1ccc([N+](=O)[O-])c(O)c1	1.75
CNC(=O)CF	-0.83
O=NN1CC(Cl)C(Cl)C1 (stereo not drawn)	0.83
O=[N+]([O-])c1ccc(O)c([N+](=O)[O-])c1O	2.1

SMILES	logP
O=[N+]([O-])c1cc([N+](=O)[O-])c2n[nH]cc2c1	1.6
O=[N+]([O-])c1cccc([N+](=O)[O-])c1O	1.37
CCOP(=S)(CC)Oc1cc(Cl)c(Cl)cc1Cl (stereo not drawn)	5.23
CC(O)C(C)(C)C (stereo not drawn)	1.48
O=[N+]([O-])OCCO[N+](=O)[O-]	1.16
CCN(CC)Oc1c([N+](=O)[O-])cc([N+](=O)[O-])cc1[N+](=O)[O-]	1.29
CCOP(=O)(CC)Sc1ccccc1 (stereo not drawn)	2.11
CC(C)CNOc1c([N+](=O)[O-])cc([N+](=O)[O-])cc1[N+](=O)[O-]	1.89
C/N=C(\NC)N[N+](=O)[O-]	-0.7
Cc1ccc([N+](=O)[O-])cc1[N+](=O)[O-]	1.98
O=C([O-])CCCc1ccc(N(CCCl)CCCl)cc1.[Na+]	0.93
O=[N+]([O-])c1cc([N+](=O)[O-])c(ONC2CCCCC2)c([N+](=O)[O-])c1	2.47
CC(=O)C=NO	0.34
CCCCNOc1c([N+](=O)[O-])cc([N+](=O)[O-])cc1[N+](=O)[O-]	2.05
Cc1cc([N+](=O)[O-])cc([N+](=O)[O-])c1O	2.13
O=[N+]([O-])c1ccc([N+](=O)[O-])cc1	1.46
NNc1ccc([N+](=O)[O-])cc1[N+](=O)[O-]	1.47
O=C(O)C(O)(c1ccccc1)c1ccccc1	2.3
Cc1nc([N+](=O)[O-])c([N+](=O)[O-])n1C	0.49
